Measurements reported in ChEMBL document CHEMBL1153469, “Antimicrobial and immunomodulatory properties of prenylated xanthones from twigs of Garcinia staudtii” (Bioorg Med Chem, 2009).

system: PBMC; experiment: Immunomodulatory activity in human PBMC assessed as inhibition of phytohemagglutinin-induced T-cell proliferation after 72 hrs by [3H]thymidine incorporation assay; type: functional, cell-based

Compound | Activity
CC(C)=CCc1c2c(c(O)c3c(=O)c4cc(O)cc(O)c4oc13)C=CC(C)(C)O2 [STAUDTIIXANTHONE B] | Dose-dependent effect
CC(C)=CCc1c(O)c(CC=C(C)C)c2oc3c(O)cc(O)cc3c(=O)c2c1O [STAUDTIIXANTHONE A] | Dose-dependent effect
COc1cc2oc3c4c(cc(O)c3c(=O)c2c2c1OC(C)(C)CC2)OC(C)(C)CC4 [STAUDTIIXANTHONE D] | Dose-dependent effect
CC(C)=CCc1c2c(c3oc4c(O)cc(O)cc4c(=O)c3c1O)C=CC(C)(C)O2 [STAUDTIIXANTHONE C] | Dose-dependent effect
